Target: EP2 receptor (Homo sapiens, UniProt P43116)
Assay: Scatchard analysis of [3H]PGE2 binding in 293-S/EP2 line
Parameters: cDNAs representing the complete open reading frames of the human EP2 and EP4 receptors; expressed in transfected cells
Conditions: read-out: Kd for PGE2 (EP2); 293-S line stably overexpressing human EP2, approximately 338,400 receptors per cell

The chains behind the UniProt entries cited, without tags or fusion partners. Where a name states a change or a piece, a line headed by the entry shows the natural chain unless it says otherwise.
UniProt P43116: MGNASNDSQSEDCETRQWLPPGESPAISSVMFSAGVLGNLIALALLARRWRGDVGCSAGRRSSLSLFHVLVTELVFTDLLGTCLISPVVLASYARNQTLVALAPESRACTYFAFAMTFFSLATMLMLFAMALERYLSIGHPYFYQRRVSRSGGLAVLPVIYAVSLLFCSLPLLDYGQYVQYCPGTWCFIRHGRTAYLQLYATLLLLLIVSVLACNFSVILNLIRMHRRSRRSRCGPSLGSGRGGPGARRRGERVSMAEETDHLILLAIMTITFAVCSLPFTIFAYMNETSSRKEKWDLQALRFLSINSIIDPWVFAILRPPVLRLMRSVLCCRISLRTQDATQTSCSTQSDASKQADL

A Kd of 0.012 µM was found for CCCCC[C@H](O)/C=C/[C@H]1[C@H](O)CC(=O)[C@@H]1C/C=C\CCCC(=O)O [PGE2, Prostaglandin E2] in this work.
